miR-21 FLuc = miR-21 reporter, rising signal | AID 2288 | HeLa miR-21 FLuc reporter, luciferase, 48 h | 340,000 tested, under 10 active | Potency, µM (titrated, usually from 38.3 µM), for the others: at the top dose reporter change, positive = more light; active = well fitted rising curve with a large enough effect; inconclusive = small, poorly fitted or top-dose-only effect; inactive = no such curve, though single readings can be large or run the other way;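 also: % of control where 0% means no effect; miR-21 action dims this reporter so a rising signal means less miR-21 action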
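Luminescence from a firefly luciferase reporter carrying a miR-21 binding site downstream, stably expressed under a CMV promoter in HeLa cells that make miR-21 endogenously, reports miRNA modulation after 48 h compound exposure up to approximately 40uM final.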
A549 viability = A549 cytotoxicity, counter-screen for Nrf2 inhibitors. A549 ARE-Fluc cells, CellTiter-Fluor viability, 18-24 h. Potency, µM (doses to about 46 µM), without a hit: top-dose activity change, negative = cytotoxicity, actives largely listed as inhibitors. hit rate 0.16% among 390,000. AID 504648; further: potency means the concentration at half of the fitted maximal effect; on the % scale 0 is the no-effect control and ±100 the full control effect
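Cytotoxicity counterscreen: CellTiter-Fluor fluorescence was measured in A549 ARE_Fluc cells after 18-24 h of compound exposure in a concentration series. The subsequent BugLite luminescent read reports ARE-luciferase activity.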
Nrf2 activator = activates Nrf2 signaling; hit rate 0.31% among 410,000; AREc32 ARE-luciferase reporter (MCF7-derived line), luminescence, 24 h; Potency, µM (titrated, usually from 46.1 µM), inactives show top-dose activation, actives largely listed as activators; further: potency means the concentration at half of the fitted maximal effect; % of control where 0% means no effect; nearly all actives have a fitted effect of over 65% in size
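Cells of the AREc32 ARE-luciferase line are plated in OPTI-MEM containing 5% FBS and left overnight at 37 deg C. Compounds are pinned in, incubation continues 24 hr, and firefly luciferase signal is then measured.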
B2AR arrestin = agonists driving beta-arrestin recruitment to human beta2-adrenergic receptor; P07550; hit rate 0.02% among 330,000; beta-arrestin recruitment to beta2AR, cell-based reporter; Potency, µM (series often up to 46.1 µM), without a hit: at the highest dose activation, hits mostly activators;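 further: potency means the concentration at half of the fitted maximal effect; 0% = DMSO controls and full agonism = EC100 isoproterenol or metaproterenol; nearly all actives have a fitted effect of over 65% in size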
Nrf2 inh = inhibitors of Nrf2 signaling | A549 ARE-Fluc reporter, luciferase luminescence, 18-24 h | Potency, µM (top dose mostly 46 µM), for the others: at the highest dose activity change, negative = inhibition, usual class: inhibitors | hit rate 2.1% among 360,000 | AID 504444; further: potency means the concentration at half of the fitted maximal effect; on the % scale 0 is the no-effect control and ±100 the full control effect; nearly all actives have a fitted effect of over 60% in size
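Concentration-response testing used A549 ARE_Fluc cells at 5000 cells/well. Following an 18-24 h compound incubation, viability was read by fluorescence (Ex 405/Em 525) and luciferase output by luminescence.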
Starred values were filed as active, the others as inactive; ? = inconclusive; nt = not tested or not shown. A selection: hits, their analogues and other compounds. The true share with any hit is near 2.2%. Unless noted, the call rests on the fitted dose curve; in most records, active means well fitted curve in the direction sought with a large enough effect; inconclusive means small, poorly fitted or top-dose-only effect, or another doubt; inactive means no such curve, though single readings can be large; an effect the other way counts as inactive or inconclusive.

#1 Cn1c(NCc2ccco2)nc2c1c(=O)n(Cc1ccc(Cl)cc1Cl)c(=O)n2C
#2 O=c1oc(CCO)cc2ccc(C#Cc3ccsc3)cc12
#3 CN(C)c1ccc(C#Cc2ccc3cc(CCO)oc(=O)c3c2)cc1
#4 CCN1CCN(c2ccc(NC(=O)c3cccc(S(=O)(=O)N4CCCC4)c3)cc2)CC1
#5 CC1CN(S(=O)(=O)c2cccc(C(=O)Nc3ccccc3N3CCCCC3)c2)CC(C)O1 (stereo unspecified)
#6 CC1CN(S(=O)(=O)c2cccc(C(=O)N(C)C3CCN(C)CC3)c2)CC(C)O1 (stereo unspecified)
Assay by compound | 1 | 2 | 3 | 4 | 5 | 6
miR-21 FLuc | -4% | nt | nt | nt | nt | nt
A549 viability | -13% | -3% | -7% | -1% | ? | -1%
Nrf2 activator | 2% | 2.5µM* | 4% | 4% | 0% | 0%
B2AR arrestin | -1% | 0% | 2% | -1% | 0% | -1%
Nrf2 inh | 18µM* | 1% | 29% | 7% | 16µM* | 4%

#7 O=C(Nc1ccc(N2CCOCC2)cc1)c1cccc(S(=O)(=O)N2CCCCC2)c1
#8 Cc1ccccc1OCCOC(=O)c1cc(S(=O)(=O)N2CCCCC2)ccc1N1CCOCC1
#9 CC1CN(S(=O)(=O)c2cccc(C(=O)N=c3sccn3C)c2)CC(C)O1 (stereo unspecified)
#10 Cc1ccc(COC(=O)c2cc(S(=O)(=O)N3CCOCC3)ccc2C)cc1
#11 O=C(Nc1nnc(S(=O)(=O)N2CCCCC2)s1)c1cccc(Br)c1
#12 CC1CCN(S(=O)(=O)c2nnc(NC(=O)c3cccc(Br)c3)s2)CC1
Assay by compound | 7 | 8 | 9 | 10 | 11 | 12
miR-21 FLuc | 0% | nt | nt | nt | -4% | -6%
A549 viability | -13% | -6% | -18% | 10% | -8% | 5%
Nrf2 activator | 0% | 0% | 3% | 0% | 3% | 0%
B2AR arrestin | 0% | 3% | 0% | 0% | 0% | nt
Nrf2 inh | 21µM* | 16µM* | 12µM* | 16µM* | 26µM* | -11%

#13 Cc1ccc(S(=O)(=O)N2CCOCC2)cc1C(=O)OCC(=O)N1CCCCC1
#14 O=C(Nc1ccncc1)c1cccc(S(=O)(=O)N2CCCC2)c1
#15 O=C(Nc1ccncc1)C1CCN(S(=O)(=O)c2cccc(C(F)(F)F)c2)CC1
#16 Cc1cccc(CNC(=O)Cn2c(-c3cccs3)cc3ccccc32)c1
#17 Cc1nn(-c2ccccc2)c(-n2cccc2)c1C(=O)NCCc1ccc(Cl)cc1
#18 O=C(Nc1cccc(S(=O)(=O)N2CCCC2)c1)c1cc(-c2ccccn2)nc2ccccc12
Assay by compound | 13 | 14 | 15 | 16 | 17 | 18
miR-21 FLuc | nt | 12% | nt | 0% | -2% | 0%
A549 viability | 9% | -19% | -4% | 2% | 1% | -1%
Nrf2 activator | 1% | 0% | 0% | 0% | 0% | 0%
B2AR arrestin | -2% | 0% | 0% | nt | nt | -1%
Nrf2 inh | 15% | 8.2µM* | 16µM* | -2% | -2% | 9.2µM*

#19 Cc1ccc(S(=O)(=O)N2CCOCC2)cc1C(=O)Nc1ccc(N2CCCCCC2)cc1
#20 CC(=O)c1ccc(NC(=O)c2cc(S(=O)(=O)N3CCOCC3)ccc2C)cc1
#21 Cc1cc(C(=O)Nc2cccc(S(=O)(=O)N3CCCC3)c2)c2ccccc2n1
#22 O=C(c1ccc2c(=O)n(CCc3ccccc3)c(=O)[nH]c2c1)N1CCN(C(=O)c2ccco2)CC1
#23 O=c1cc(-c2cccs2)oc2ccc(Cl)cc12
#24 CCN1CCN(C(=O)CCN(CC(C)C)c2nc(-c3cccs3)nc3ccccc23)CC1
Assay by compound | 19 | 20 | 21 | 22 | 23 | 24
miR-21 FLuc | nt | 7% | nt | nt | -41% | nt
A549 viability | -20% | 1% | -7% | 1% | -5% | -13%
Nrf2 activator | 4% | 0% | 0% | nt | 11µM* | nt
B2AR arrestin | -1% | 0% | 0% | nt | 0% | nt
Nrf2 inh | 21µM* | 15% | ? | ? | ? | -18%

#25 Cc1cc2c(s1)c1cnn(Cc3cc(C(F)(F)F)cc(Cl)c3F)c(=O)c1n2C
#26 CCn1c(COc2ccc(Cl)cc2)nnc1SC1CCc2ccccc2C1=O (stereo unspecified)
#27 CC1CCN(CC2C(=O)O[C@@H]3C[C@@]4(C)CCC[C@H](C)C4=C[C@H]23)CC(C)(C)C1 (stereo partly specified)
#28 C=C1CCC[C@]2(C)C[C@H]3OC(=O)C(CN4CC(C)OC(C)C4)[C@H]3C[C@@H]12 (stereo partly specified)
#29 CCN(CC)Cc1cc(Nc2c3ccccc3nc3c4ccccc4n(C)c23)cc(CN(CC)CC)c1O
#30 COc1ccc(NC(=O)c2ccc3c(c2)NC(=O)CS3)cc1S(=O)(=O)Nc1ccc(Br)cc1
Assay by compound | 25 | 26 | 27 | 28 | 29 | 30
miR-21 FLuc | nt | -6% | 6% | 3% | nt | ?
A549 viability | 0% | 0% | 0% | -8% | 16µM* | 2%
Nrf2 activator | nt | 3% | 8.9µM* | ? | ? | -1%
B2AR arrestin | nt | 0% | 0% | -1% | nt | -1%
Nrf2 inh | -5% | 26µM* | -9% | ? | ? | -30%

#31 Cc1ccc(NS(=O)(=O)c2cc(NC(=O)c3ccc4c(c3)NC(=O)CS4)ccc2C)c(C)c1
#32 CCSc1nnc(NC(=O)C(CC)(C(F)(F)F)C(F)(F)F)s1
#33 CCSc1nnc(NC(=O)C(C)(C(F)(F)F)C(F)(F)F)s1
#34 CCSc1nnc(NC(=O)C(C(F)(F)F)C(F)(F)F)s1
#35 CC(NC(=S)NC1CCCCC1)c1ccc(C(C)(C)C)cc1 (stereo unspecified)
#36 CC(C)c1ccc(C(C)NC(=S)NC2CCCCC2)cc1 (stereo unspecified)
Assay by compound | 31 | 32 | 33 | 34 | 35 | 36
miR-21 FLuc | ? | ? | 25% | 0% | 0% | 25%
A549 viability | ? | ? | ? | 0% | 1% | 9%
Nrf2 activator | 3% | 3% | 0% | ? | 5% | 0%
B2AR arrestin | 0% | 0% | 0% | -1% | 0% | -1%
Nrf2 inh | 18µM* | 15µM* | 16µM* | -11% | ? | 18µM*

#37 Cn1c(=O)c2[nH]c(C3CCCC3)nc2n(C)c1=O
#38 Cn1c(=O)c2[nH]c(C3CC=CCC3)nc2n(C)c1=O (stereo unspecified)
#39 Cc1ccc(-c2csc(NC(=O)C3CC(=O)N(c4ccc5c(c4)OCCO5)C3)n2)o1 (stereo unspecified)
#40 COC(=O)c1ccsc1NC(=O)CSc1nnnn1-c1ccccc1SC
#41 CCOP(=O)(OCC)C(C)(C)NC(=O)Nc1ccc(Cl)c(Cl)c1
#42 Cc1ccn2c(Nc3c(C)cccc3C)c(-c3ccc(Cl)s3)nc2c1
Assay by compound | 37 | 38 | 39 | 40 | 41 | 42
miR-21 FLuc | nt | nt | nt | -6% | 13% | 13%
A549 viability | -9% | -4% | 8% | -20% | 2% | -2%
Nrf2 activator | 1% | -1% | nt | 4% | 0% | 5%
B2AR arrestin | nt | nt | nt | 0% | 0% | nt
Nrf2 inh | 6.5µM* | ? | ? | 21µM* | 23µM* | ?

Compound profiles (already shown):
`CCOP(=O)(OCC)C(C)(C)NC(=O)Nc1ccc(Cl)c(Cl)c1` as listed: miR-21 FLuc: 13%; A549 viability: 2%; Nrf2 activator: 0%; B2AR arrestin: 0%; Nrf2 inh: 23µM*
`Cc1ccn2c(Nc3c(C)cccc3C)c(-c3ccc(Cl)s3)nc2c1` as listed: miR-21 FLuc: 13%; A549 viability: -2%; Nrf2 activator: 5%; B2AR arrestin: nt; Nrf2 inh: ?

(cont.)
#43 O=C(COC(=O)c1ccc2ccccc2n1)Nc1cccc(S(=O)(=O)NC2=NCCCCC2)c1
#44 CCc1nc2ccccc2c(C(=O)OCC(=O)Nc2cccc(S(=O)(=O)NC3=NCCCCC3)c2)c1C
#45 N#Cc1ccc(OCC(=O)Nc2cccc(S(=O)(=O)NC3=NCCCCC3)c2)cc1
#46 O=C(Nc1cccc(S(=O)(=O)NC2=NCCCCC2)c1)c1ccc(Cl)cc1
#47 O=C(COc1ccc(Cl)cc1)Nc1cccc(S(=O)(=O)NC2=NCCCCC2)c1
Assay by compound | 43 | 44 | 45 | 46 | 47
miR-21 FLuc | -1% | ? | nt | nt | nt
A549 viability | -7% | -25% | -12% | -20% | -18%
Nrf2 activator | 0% | -2% | 0% | 0% | 0%
B2AR arrestin | 0% | 0% | 0% | 0% | 0%
Nrf2 inh | 5% | 16µM* | 0% | 15µM* | 26µM*

Screening data (PubChem BioAssay)
